Key:
TPA-induced MPO activity [1] = experiment: Systemic effect: TPA-induced MPO activity in the contralateral vehicle-treated ear; conditions: topical, increasing concentration, TPA on both ears
AA-induced MPO = experiment: Arachidonic acid-induced inflammation in mouse ear, MPO assay; type: in vivo; conditions: AA 4 mg/40 μl acetone, MPO at 5 hours
Procedure: Arachadonic acid (“AA”), another standard agent that is used routinely as a contact irritant in the mouse ear model to assay the effectiveness of both steroidal and nonsteroidal anti-inflammatory agents, is the metabolic precursor for a number of lipoxygenase and cyclooxygenase products. Its mechanism of action and, thus, the signaling pathways it activates, differ from those activated by topically applied TPA. AA produces a more rapid edema than TPA that peaks at 1 hour after application. There is minimal histologically observable neutrophil infiltration in response to AA, but an increase in MPO can be detected. Experience has shown that effectiveness against cyclooxygenase activated inflammation in this model is less predictive of effectiveness against human inflammatory diseases than effectiveness against TPA activated inflammation. The effect of the inventive compositions on arachidonic acid (AA) induced inflammation was assayed using the same protocols as above, but with the following modifications. AA was applied to both ears at 4 mg/40 μl acetone. The ears were harvested at 1 hour to measure edema, the maximum response time, and at 5 hours for inflammatory neutrophil infiltration as measured by an MPO assay.

TPA-induced MPO activity [2] = experiment: TPA-induced neutrophil infiltration, MPO assay of mouse ears; conditions: AFC without TPA

**Q.** What does the source list for CC(=O)N[C@@H](CSCC=C(C)CCC=C(C)CCC=C(C)C)C(=O)O (stereo in doubt) [AFC, N-acetyl-5-trans, trans-farnesyl-L-cysteine]?
**A.** MPO activity in the contralateral vehicle-treated ear (systemic effect) (TPA-induced MPO activity [1]): no effect; ED50 against AA-induced MPO relative to TPA-induced MPO (AA-induced MPO): 10 fold; activity against AA-induced granulocyte infiltration relative to TPA (AA-induced MPO): 50%; inflammation activity of AFC itself in the Neutrophil-Infiltration Assay (TPA-induced MPO activity [2]): no inflammation activity of its own
